Data set [1] deals with Mus musculus. In words: Inhibition of avoidance behaviour in C57Bl/6 mouse assessed as time spent in rearing at 5 mg/kg, ip treated 1 hr prior to testing and measured for 10 mins by open-field test (reference value: 20.1 +/- 4.41 sec). Format: functional. To be noted: time 70 min, 1.167 h.
Data set [2] has as its system Mus musculus. Briefly: Inhibition of avoidance behaviour in C57Bl/6 mouse assessed as time taken to reach center at 5 mg/kg, ip treated 1 hr prior to testing and measured for 10 mins by open-field test (reference value: 5.44 +/- 0.911 %). To be noted: time 70 min, 1.167 h. Set-up: scale not given: the % may be the effect or the level left. Type of data set: functional.

Amino acid sequences for entries named in this document (tags omitted). A change or cut given only in a name is not applied to a line headed by its entry.
UniProt Q00961: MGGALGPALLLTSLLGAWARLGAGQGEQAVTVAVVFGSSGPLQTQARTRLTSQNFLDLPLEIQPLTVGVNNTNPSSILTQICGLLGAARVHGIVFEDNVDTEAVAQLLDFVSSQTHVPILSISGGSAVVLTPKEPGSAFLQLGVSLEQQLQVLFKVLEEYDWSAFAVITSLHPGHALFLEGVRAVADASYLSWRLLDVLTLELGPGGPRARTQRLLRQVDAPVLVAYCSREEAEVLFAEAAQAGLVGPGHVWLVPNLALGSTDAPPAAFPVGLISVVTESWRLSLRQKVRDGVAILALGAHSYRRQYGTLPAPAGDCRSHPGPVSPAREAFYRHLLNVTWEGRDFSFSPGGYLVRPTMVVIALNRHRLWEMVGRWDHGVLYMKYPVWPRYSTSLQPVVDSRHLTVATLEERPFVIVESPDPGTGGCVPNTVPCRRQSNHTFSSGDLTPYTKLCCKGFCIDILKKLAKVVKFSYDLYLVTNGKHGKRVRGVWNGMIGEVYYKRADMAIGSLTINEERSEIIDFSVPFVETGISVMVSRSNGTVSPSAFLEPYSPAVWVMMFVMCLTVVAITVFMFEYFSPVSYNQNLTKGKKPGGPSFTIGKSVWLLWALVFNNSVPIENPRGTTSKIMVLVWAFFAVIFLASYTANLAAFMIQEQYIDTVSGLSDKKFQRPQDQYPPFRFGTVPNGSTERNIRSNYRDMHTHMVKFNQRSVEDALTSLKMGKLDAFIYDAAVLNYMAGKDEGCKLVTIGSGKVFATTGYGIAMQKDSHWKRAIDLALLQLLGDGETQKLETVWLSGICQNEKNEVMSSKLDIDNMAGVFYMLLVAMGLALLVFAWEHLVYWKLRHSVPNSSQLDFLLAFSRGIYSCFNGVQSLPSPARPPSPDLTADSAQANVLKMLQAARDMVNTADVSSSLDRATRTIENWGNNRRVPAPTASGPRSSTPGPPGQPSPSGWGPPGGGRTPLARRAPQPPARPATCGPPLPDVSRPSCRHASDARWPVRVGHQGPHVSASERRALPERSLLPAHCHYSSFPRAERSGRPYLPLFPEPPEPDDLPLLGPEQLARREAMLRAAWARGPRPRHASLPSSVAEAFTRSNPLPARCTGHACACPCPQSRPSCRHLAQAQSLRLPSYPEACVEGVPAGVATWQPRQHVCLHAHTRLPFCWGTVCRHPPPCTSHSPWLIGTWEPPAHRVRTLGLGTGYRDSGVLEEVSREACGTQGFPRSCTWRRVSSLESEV
UniProt P39086: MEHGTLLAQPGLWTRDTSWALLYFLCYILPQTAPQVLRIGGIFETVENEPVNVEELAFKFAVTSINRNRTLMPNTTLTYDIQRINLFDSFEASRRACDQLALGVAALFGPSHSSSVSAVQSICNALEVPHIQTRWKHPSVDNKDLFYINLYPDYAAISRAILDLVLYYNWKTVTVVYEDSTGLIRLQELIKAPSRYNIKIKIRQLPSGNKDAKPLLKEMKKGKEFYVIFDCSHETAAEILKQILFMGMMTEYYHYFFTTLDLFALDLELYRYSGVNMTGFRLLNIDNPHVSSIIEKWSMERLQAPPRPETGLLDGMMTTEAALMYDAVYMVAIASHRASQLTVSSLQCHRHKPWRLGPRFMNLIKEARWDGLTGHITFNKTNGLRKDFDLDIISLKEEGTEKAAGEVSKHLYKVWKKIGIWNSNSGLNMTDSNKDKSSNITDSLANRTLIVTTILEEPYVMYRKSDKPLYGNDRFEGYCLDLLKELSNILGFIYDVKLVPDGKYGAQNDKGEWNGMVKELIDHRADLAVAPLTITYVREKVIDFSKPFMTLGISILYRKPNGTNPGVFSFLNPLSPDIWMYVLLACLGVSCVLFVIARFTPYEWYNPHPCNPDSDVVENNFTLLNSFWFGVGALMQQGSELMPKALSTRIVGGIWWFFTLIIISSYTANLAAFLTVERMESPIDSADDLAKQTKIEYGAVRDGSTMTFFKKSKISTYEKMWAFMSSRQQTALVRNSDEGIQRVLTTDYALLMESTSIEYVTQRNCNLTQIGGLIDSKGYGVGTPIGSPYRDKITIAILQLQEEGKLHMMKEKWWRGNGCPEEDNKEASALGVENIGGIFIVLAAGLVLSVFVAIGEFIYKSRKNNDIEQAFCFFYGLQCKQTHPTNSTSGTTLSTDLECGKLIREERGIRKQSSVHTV
UniProt Q16478: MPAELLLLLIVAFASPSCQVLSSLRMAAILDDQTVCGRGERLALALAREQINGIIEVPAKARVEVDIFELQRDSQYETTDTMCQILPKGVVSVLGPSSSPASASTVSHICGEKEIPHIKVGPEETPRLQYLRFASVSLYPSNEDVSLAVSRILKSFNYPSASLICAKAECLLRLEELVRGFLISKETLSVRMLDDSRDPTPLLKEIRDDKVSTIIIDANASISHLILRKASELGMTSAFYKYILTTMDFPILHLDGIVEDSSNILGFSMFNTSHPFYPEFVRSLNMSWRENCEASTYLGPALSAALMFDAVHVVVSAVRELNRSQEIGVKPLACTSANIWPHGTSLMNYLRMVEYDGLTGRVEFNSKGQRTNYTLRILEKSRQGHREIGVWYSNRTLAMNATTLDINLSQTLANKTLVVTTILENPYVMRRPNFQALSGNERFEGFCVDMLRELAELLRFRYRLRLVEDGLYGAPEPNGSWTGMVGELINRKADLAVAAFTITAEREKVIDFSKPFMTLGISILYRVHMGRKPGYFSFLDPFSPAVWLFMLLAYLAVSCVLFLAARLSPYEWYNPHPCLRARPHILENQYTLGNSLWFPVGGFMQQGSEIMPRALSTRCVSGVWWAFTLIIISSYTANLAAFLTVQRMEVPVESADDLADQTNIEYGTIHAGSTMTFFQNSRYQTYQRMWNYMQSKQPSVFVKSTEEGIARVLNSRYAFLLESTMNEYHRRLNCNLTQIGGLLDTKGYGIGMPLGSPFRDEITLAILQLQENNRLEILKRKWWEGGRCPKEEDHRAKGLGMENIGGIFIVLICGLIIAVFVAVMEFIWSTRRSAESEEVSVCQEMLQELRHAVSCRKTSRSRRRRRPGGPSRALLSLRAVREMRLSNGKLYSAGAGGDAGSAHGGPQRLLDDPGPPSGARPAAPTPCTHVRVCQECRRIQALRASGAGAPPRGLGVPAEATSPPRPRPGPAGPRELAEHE
UniProt Q16099: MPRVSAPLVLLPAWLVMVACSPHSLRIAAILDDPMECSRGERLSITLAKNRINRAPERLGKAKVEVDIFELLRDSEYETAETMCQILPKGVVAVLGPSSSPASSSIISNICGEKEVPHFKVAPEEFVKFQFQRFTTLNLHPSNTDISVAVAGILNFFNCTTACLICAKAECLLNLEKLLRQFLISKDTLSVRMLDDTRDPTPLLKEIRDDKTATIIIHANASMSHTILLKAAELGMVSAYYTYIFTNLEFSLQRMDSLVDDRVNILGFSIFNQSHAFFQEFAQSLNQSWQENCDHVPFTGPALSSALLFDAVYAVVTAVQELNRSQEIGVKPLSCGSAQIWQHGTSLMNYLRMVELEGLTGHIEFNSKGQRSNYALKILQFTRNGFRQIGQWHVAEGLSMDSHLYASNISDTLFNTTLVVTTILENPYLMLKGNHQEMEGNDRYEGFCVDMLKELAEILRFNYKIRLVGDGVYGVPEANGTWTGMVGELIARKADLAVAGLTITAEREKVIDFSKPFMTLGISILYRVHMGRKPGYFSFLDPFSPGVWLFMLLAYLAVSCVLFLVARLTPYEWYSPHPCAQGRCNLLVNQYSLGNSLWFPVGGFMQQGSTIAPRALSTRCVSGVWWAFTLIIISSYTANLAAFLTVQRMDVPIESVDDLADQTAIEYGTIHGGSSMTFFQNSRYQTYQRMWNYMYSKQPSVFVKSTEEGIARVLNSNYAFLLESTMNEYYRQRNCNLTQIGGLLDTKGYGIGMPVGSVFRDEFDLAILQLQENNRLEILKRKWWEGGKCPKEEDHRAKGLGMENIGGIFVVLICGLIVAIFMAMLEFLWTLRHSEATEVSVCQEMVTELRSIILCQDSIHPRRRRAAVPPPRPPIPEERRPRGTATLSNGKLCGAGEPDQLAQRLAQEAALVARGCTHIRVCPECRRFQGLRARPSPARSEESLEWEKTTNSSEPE
UniProt Q13003: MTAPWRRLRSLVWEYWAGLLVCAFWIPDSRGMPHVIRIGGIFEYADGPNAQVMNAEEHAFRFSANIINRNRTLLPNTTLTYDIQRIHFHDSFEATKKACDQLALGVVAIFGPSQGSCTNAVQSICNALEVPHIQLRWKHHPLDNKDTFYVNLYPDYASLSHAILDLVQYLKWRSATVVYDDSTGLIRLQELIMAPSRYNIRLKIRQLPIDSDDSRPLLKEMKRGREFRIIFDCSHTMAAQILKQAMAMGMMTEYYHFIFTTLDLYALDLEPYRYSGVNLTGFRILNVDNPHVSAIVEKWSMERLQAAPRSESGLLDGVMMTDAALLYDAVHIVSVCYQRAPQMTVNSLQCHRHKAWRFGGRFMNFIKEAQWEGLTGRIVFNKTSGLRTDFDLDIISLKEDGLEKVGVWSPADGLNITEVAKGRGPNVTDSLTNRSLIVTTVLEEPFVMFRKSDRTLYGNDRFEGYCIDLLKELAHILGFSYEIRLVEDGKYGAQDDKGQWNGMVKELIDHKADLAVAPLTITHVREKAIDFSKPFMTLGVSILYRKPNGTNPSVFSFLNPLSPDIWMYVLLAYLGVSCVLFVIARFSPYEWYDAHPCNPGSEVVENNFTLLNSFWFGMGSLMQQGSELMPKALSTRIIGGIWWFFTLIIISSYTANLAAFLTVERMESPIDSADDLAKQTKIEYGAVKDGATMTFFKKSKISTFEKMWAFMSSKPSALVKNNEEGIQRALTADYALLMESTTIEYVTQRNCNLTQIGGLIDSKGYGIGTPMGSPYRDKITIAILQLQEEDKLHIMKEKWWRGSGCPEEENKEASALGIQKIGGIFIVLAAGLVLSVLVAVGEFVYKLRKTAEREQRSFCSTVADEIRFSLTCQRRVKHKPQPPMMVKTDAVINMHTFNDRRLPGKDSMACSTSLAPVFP
UniProt Q9UBL9: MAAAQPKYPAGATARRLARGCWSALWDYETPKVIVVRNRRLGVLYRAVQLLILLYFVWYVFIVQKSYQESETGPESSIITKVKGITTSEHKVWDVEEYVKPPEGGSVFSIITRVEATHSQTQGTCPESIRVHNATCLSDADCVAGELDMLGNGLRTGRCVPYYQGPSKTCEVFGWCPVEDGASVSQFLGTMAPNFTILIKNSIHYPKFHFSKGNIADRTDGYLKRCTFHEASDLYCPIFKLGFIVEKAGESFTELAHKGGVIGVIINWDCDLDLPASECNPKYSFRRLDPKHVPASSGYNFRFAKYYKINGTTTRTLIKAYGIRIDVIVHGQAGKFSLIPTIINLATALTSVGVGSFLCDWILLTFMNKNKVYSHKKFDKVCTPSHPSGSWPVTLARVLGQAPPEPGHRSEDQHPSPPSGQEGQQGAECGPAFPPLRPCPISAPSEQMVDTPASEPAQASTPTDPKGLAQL
UniProt O15547: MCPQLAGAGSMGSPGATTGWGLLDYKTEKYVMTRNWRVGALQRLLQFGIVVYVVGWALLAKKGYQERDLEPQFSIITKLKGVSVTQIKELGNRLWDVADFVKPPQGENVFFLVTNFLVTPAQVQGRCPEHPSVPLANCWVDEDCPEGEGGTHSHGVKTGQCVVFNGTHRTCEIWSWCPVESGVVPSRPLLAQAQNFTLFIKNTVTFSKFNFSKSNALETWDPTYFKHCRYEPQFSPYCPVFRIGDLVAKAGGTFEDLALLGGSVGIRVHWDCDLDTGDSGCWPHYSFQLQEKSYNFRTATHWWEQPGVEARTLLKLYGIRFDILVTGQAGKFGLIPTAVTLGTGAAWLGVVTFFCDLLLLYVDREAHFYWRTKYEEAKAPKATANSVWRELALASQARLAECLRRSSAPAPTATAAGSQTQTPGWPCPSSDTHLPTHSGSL
UniProt P56373: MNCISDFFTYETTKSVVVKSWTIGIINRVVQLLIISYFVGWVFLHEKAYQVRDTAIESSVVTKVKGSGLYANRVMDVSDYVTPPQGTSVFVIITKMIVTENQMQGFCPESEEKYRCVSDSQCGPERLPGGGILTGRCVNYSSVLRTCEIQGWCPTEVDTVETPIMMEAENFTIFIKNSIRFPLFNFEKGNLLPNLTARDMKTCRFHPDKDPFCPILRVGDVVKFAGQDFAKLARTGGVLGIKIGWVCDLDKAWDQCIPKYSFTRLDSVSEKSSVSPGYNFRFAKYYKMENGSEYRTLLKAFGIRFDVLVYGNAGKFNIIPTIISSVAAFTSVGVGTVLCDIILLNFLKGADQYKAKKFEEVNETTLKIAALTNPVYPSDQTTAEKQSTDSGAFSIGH

The nature of data set [3]: AUClast in plasma of Sprague-Dawley rat at 10 mg/kg, po. Type of data set: ADME, organism-based. Particulars: in vivo; call rule not given here.
Data set [4] can be described thus: AUClast in brain of Sprague-Dawley rat at 1 mg/kg, iv. Format: ADME, organism-based. To be noted: in vivo.
Data set [5] deals with Glutamate receptor ionotropic, NMDA 2C (Rattus norvegicus) (UniProt Q00961). Format: cell-based. To be noted: Oocyte, filed as positive allosteric modulator.
For data set [6], the system named is Mus musculus. Briefly: Inhibition of avoidance behaviour in C57Bl/6 mouse assessed as time spent in rearing at 10 mg/kg, ip treated 1 hr prior to testing and measured for 10 mins by open-field test (reference value: 20.1 +/- 4.41 sec). Type of data set: functional. To be noted: time 70 min, 1.167 h.
The target of data set [7] is Glutamate receptor ionotropic, NMDA 2D (Rattus norvegicus) (UniProt Q62645). Format: cell-based. Particulars: Oocyte, filed as positive allosteric modulator.
Data set [8] concerns Mus musculus. In words: Inhibition of avoidance behaviour in C57Bl/6 mouse assessed as number of entries to center at 10 mg/kg, ip treated 1 hr prior to testing and measured for 10 mins by open-field test (reference value: 20.1 +/- 4.41). Format: functional. Particulars: time 70 min, 1.167 h.
The subject of data set [9] is Mus musculus. Briefly: Inhibition of avoidance behaviour in C57Bl/6 mouse assessed as distance traveled to center at 10 mg/kg, ip treated 1 hr prior to testing and measured for 10 mins by open-field test (reference value: 22.9 +/- 2.89 %). Particulars: time 70 min, 1.167 h. Format: functional. Also noted: scale not given: the % may be the effect or the level left.
Data set [10] deals with Mus musculus. Briefly: Inhibition of avoidance behaviour in C57Bl/6 mouse assessed as time spent in light chamber at 10 mg/kg, ip treated 1 hr prior to testing and measured for 10 mins by light/dark box test (reference value: 15.2 +/- 2.91 %). Format: functional. Also noted: scale not given: the % may be the effect or the level left. To be noted: time 70 min, 1.167 h.
Data set [11] has as its system Mus musculus. In words: Inhibition of avoidance behaviour in C57Bl/6 mouse assessed as number of entries at 5 mg/kg, ip treated 1 hr prior to testing and measured for 10 mins by light/dark box test (reference value: 14.3 +/- 2.20). Format: functional. Particulars: time 70 min, 1.167 h.
The target in data set [12] is Glutamate receptor ionotropic kainate (Homo sapiens) (UniProt P39086+Q16478+Q16099+Q13002+Q13003). In words: Inhibition of kainate receptor (unknown origin) expressed in Xenopus oocytes at 5 uM by radioligand binding assay. Type of data set: cell-based. To be noted: Oocyte.
Data set [13] has as its system Mus musculus. Briefly: Inhibition of avoidance behaviour in C57Bl/6 mouse assessed as time spent in light chamber at 5 mg/kg, ip treated 1 hr prior to testing and measured for 10 mins by light/dark box test (reference value: 15.2 +/- 2.91 %). Format: functional. Also noted: scale not given: the % may be the effect or the level left. Particulars: time 70 min, 1.167 h.

Data set [14] deals with Mus musculus. In words: Inhibition of avoidance behaviour in C57Bl/6 mouse assessed as time taken to reach center at 10 mg/kg, ip treated 1 hr prior to testing and measured for 10 mins by open-field test (reference value: 5.44 +/- 0.911 %). Format: functional. Set-up: scale not given: the % may be the effect or the level left. Particulars: time 70 min, 1.167 h.
The subject of data set [15] is Mus musculus. In words: Inhibition of avoidance behaviour in C57Bl/6 mouse assessed as distance traveled to center at 5 mg/kg, ip treated 1 hr prior to testing and measured for 10 mins by open-field test (reference value: 22.9 +/- 2.89 %). Type of data set: functional. Also noted: scale not given: the % may be the effect or the level left. To be noted: time 70 min, 1.167 h.

In data set [16] the target is Glutamate receptor ionotropic, NMDA 2B (Rattus norvegicus) (UniProt Q00960). Format: cell-based. To be noted: Oocyte, filed as positive allosteric modulator.
Data set [17] relates to Mus musculus. Briefly: Inhibition of avoidance behaviour in C57Bl/6 mouse assessed as number of entries to center at 5 mg/kg, ip treated 1 hr prior to testing and measured for 10 mins by open-field test (reference value: 20.1 +/- 4.41). Type of data set: functional. Particulars: time 70 min, 1.167 h.
Data set [18] concerns Mus musculus. In words: Inhibition of avoidance behaviour in C57Bl/6 mouse assessed as distance traveled at 10 mg/kg, ip treated 1 hr prior to testing and measured for 10 mins by light/dark box test (reference value: 40.3 +/- 3.47 %). Type of data set: functional. Particulars: time 70 min, 1.167 h. Also noted: scale not given: the % may be the effect or the level left.
Data set [19] addresses P2X receptor (Homo sapiens) (UniProt P51575+Q99571+Q9UBL9+O15547+P56373+Q99572+Q93086). Briefly: Inhibition of P2x receptor (unknown origin) expressed in Xenopus oocytes at 5 uM by radioligand binding assay. Particulars: Oocyte. Type of data set: cell-based.
Data set [20] in a line: AUClast in plasma of Sprague-Dawley rat at 1 mg/kg, iv. Type of data set: ADME, organism-based. Particulars: in vivo.
The test system of data set [21] is Mus musculus. In words: Inhibition of avoidance behaviour in C57Bl/6 mouse assessed as number of entries at 10 mg/kg, ip treated 1 hr prior to testing and measured for 10 mins by light/dark box test (reference value: 14.3 +/- 2.20). Type of data set: functional. To be noted: time 70 min, 1.167 h.
Data set [22] can be described thus: AUClast in brain of Sprague-Dawley rat at 10 mg/kg, po. Type of data set: ADME, organism-based. To be noted: in vivo.
Data set [23] can be described thus: AUClast in brain of C57BL/6 mouse at 10 mg/kg, ip. Type of data set: ADME, organism-based. To be noted: in vivo.
Data set [24] relates to Mus musculus. In words: Inhibition of avoidance behaviour in C57Bl/6 mouse assessed as distance traveled at 5 mg/kg, ip treated 1 hr prior to testing and measured for 10 mins by light/dark box test (reference value: 40.3 +/- 3.47 %). Format: functional. Also noted: scale not given: the % may be the effect or the level left. To be noted: time 70 min, 1.167 h.
Data set [25] can be described thus: AUClast in plasma of C57BL/6 mouse at 10 mg/kg, ip. To be noted: in vivo. Type of data set: ADME, organism-based.
The subject of data set [26] is Mus musculus. In words: Inhibition of avoidance behaviour in C57Bl/6 mouse assessed as total distance traveled at 10 mg/kg, ip treated 1 hr prior to testing and measured for 10 mins by light/dark box test (reference value: 1500 +/- 111 cm). Particulars: time 70 min, 1.167 h. Format: functional.
Data set [27] can be described thus: AUClast in plasma of Sprague-Dawley rat at 10 mg/kg, ip. Particulars: in vivo. Format: ADME, organism-based.
Data set [28] can be described thus: AUClast in brain of Sprague-Dawley rat at 10 mg/kg, ip. Type of data set: ADME, organism-based. Particulars: in vivo.
Data set [29] has as its system Mus musculus. In words: Inhibition of avoidance behaviour in C57Bl/6 mouse assessed as total distance traveled at 5 mg/kg, ip treated 1 hr prior to testing and measured for 10 mins by light/dark box test (reference value: 1500 +/- 111 cm). Type of data set: functional. To be noted: time 70 min, 1.167 h.
Data set [30] concerns the target Glutamate receptor ionotropic, NMDA 2B (Rattus norvegicus) (UniProt Q00960). Type of data set: cell-based. Particulars: Oocyte, filed as positive allosteric modulator. This is another data set of the same source.
For data set [31], the target named is Glutamate receptor ionotropic, NMDA 2D (Rattus norvegicus) (UniProt Q62645). Type of data set: cell-based. To be noted: Oocyte, filed as positive allosteric modulator. This is another data set of the same source.
In data set [32] the target is Glutamate receptor ionotropic, NMDA 2C (Rattus norvegicus) (UniProt Q00961). Type of data set: cell-based. Particulars: Oocyte, filed as positive allosteric modulator. This is another data set of the same source.

A word on the Emax: it is the greatest response seen or fitted, relative to the assay's reference.

For `C#Cc1sc2ncn(CC(=O)N3CC(C)(F)C3)c(=O)c2c1-c1ccc(F)c(Br)c1`, the Time was 130 s with Mus musculus [1] and 135 s in the data set on Mus musculus [6]. In addition, the Activity with Mus musculus [2] is given as 5.99%; in the data set on Mus musculus [8] it was 26.5; in the data set with Mus musculus [9], 30.2%; in the data set on Mus musculus [10], 35.3%; with Mus musculus [11], 16; in the data set with Mus musculus [13] it was 13.5%. For the same molecule, the Activity in the data set with Mus musculus [14] is reported as 8.18%; with Mus musculus [15], 20.8%; in the data set on Mus musculus [17], 23.8; in the data set with Mus musculus [18], 61.7%; in the data set with Mus musculus [21], 23.1; in the data set with Mus musculus [24], 30.3%. In addition, the Activity came out at 1870 cm with Mus musculus [26] and 1450 cm with Mus musculus [29]. Moreover, the AUClast turned out to be 1217 ng·h/g in [3]; 113 ng·h/g in data set [4]; 210 ng·h/g in data set [20]; 754 ng·h/g in data set [22]; 1000 ng·h/g in [23]; 3153 ng·h/g in data set [25]. Besides, the AUClast in data set [27] is 3352 ng·h/g; in [28] it was 1740 ng·h/g. For the same molecule, the maximal response (Emax) in data set [5] was determined as 500%; in [7], 834%; in data set [16], 395%. The inhibition result in [12] and in [19] was “Not active; Minimal Effect Observed” each time.
With `Cc1sc2ncn(CC(=O)N3CCCC3)c(=O)c2c1-c1cccc(Br)c1`, the Emax is 274% in [30], 654% in data set [31] and 491% in [32].
In the case of `Cc1sc2ncn(CC(=O)N3CC(C)(F)C3)c(=O)c2c1-c1ccc(Cl)c(F)c1`, the maximal effect (Emax) in data set [5] is 877%; in [7], 1280%; in data set [16], 310%.
On the same counts, the results for `CC1(F)CN(C(=O)Cn2cnc3sc([N+](=O)[O-])c(-c4ccc(F)c(Br)c4)c3c2=O)C1` are 544%, 615% and 282%.
On the same counts, the results for `Cc1sc2ncn(CC(=O)N3CC(C)(F)C3)c(=O)c2c1-c1cc(Cl)ccc1F` are 1020%, 1220% and 275%.
On to `Cc1sc2ncn(CC(=O)N3CC(C)(F)C3)c(=O)c2c1-c1cccc(C(F)(F)F)c1`, for which the Emax in [5] came out at 710%; in [7], 1370%; in data set [16], 253%.
On the same counts, the results for `CC1(F)CN(C(=O)Cn2cnc3sc(C(F)(F)F)c(-c4ccc(F)c(Br)c4)c3c2=O)C1` are 1050%, 1990% and 528%.
As for `Cc1sc2ncn(CC(=O)N3CC(F)(C4CC4)C3)c(=O)c2c1-c1cccc(Br)c1`, the Emax turned out to be 531% in data set [5], 1040% in data set [7] and 222% in data set [16].
On the same counts, the results for `CCC1(F)CN(C(=O)Cn2cnc3sc(C)c(-c4cccc(Br)c4)c3c2=O)C1` are 734%, 1220% and 287%.
With `Cc1sc2ncn(CC(=O)N3CC(C)(F)C3)c(=O)c2c1-c1cc(F)cc(Cl)c1`, the Emax was found to be 928% in data set [5], 1270% in [7] and 343% in [16].
As for `Cc1sc2ncn(CC(=O)N3CC(C)(F)C3)c(=O)c2c1-c1ccc2c(c1)OC(F)(F)O2`, the Emax was 1060% in data set [5], 1450% in data set [7] and 368% in data set [16].
On the same counts, the results for `CCc1sc2ncn(CC(=O)N3CC(C)(F)C3)c(=O)c2c1-c1ccc(F)c(Br)c1` are 1170%, 1650% and 499%.
For `Cc1sc2ncn(CC(=O)N3CC(F)C3)c(=O)c2c1-c1cccc(Br)c1`, in that order: 358%, 396% and 271%.
For `Cc1sc2ncn(CC(=O)N3CCC(F)(F)C3)c(=O)c2c1-c1cccc(Br)c1`, in that order: 738%, 1160% and 315%.
`Cc1sc2ncn(CC(=O)N3CC(C)(F)C3)c(=O)c2c1-c1ccc2ccn(C)c2c1`: the figures for the Emax in data set [5], in data set [7] and in data set [16] were 730%, 1040% and 676%, respectively.
On the same counts, the results for `Cc1sc2ncn(CC(=O)N3CC(C)(F)C3)c(=O)c2c1-c1ccc(F)c(OC(C)C)c1` are 1080%, 1600% and 404%.
`Cc1sc2ncn(CC(=O)N3CC(C)(F)C3)c(=O)c2c1-c1ccc(F)c(Cl)c1`: the maximal effect (Emax) in data set [5] came to 632%; in data set [7] it was 1620%; in data set [16], 362%.
For `Cc1sc2ncn(CC(=O)N3CC(C)(F)C3)c(=O)c2c1-c1ccc(Cl)c(Cl)c1`, in that order: 582%, 1080% and 359%.
For the molecule `CC1(F)CN(C(=O)Cn2cnc3sc(C#N)c(-c4ccc(F)c(Br)c4)c3c2=O)C1`, the values for the Emax in data set [5], in data set [7] and in [16] were 1080%, 702% and 347%, respectively.

These data come from ChEMBL document CHEMBL6134891, “Thienopyrimidinone Derivatives as a GluN2B/C/D Biased, Positive Allosteric Modulator of the N-Methyl-d-Aspartate Receptor” (J Med Chem, 2025).
